Assay [1] concerns the target NIH3T3 cells transfected with FGFR2-TXLNA (Homo sapiens, UniProt P21802, DEL126-151/R152G). The conditions noted are these: final concentration 0.2 μM; soft agar; FIG. 5 and FIG. 6. The procedure: (§1) Using the following apparatus, the activity of FGFR inhibitors on the transformation capacity of FGFR2 fusion polypeptide was evaluated.
Assay [2] concerns the target NIH3T3 cells transfected with FGFR2-KCTD1 (Homo sapiens, UniProt P21802). The following applies: final concentration 0.2 μM; soft agar; FIG. 5 and FIG. 6. As to the method: as §1
In assay [3] the target is NIH3T3 cell transfected with FGFR2-BICC1 type2 (Homo sapiens, UniProt P21802, DEL126-151/R152G). The procedure: as §1

Chains of the proteins cited; added tags and fusions are not shown. A line that says so, or that is headed by a name, gives the form on record, which may keep a tag or linker.
NIH3T3 cells transfected with FGFR2-TXLNA (Homo sapiens, UniProt P21802, DEL126-151/R152G), UniProt P21802, with tags, fused parts or gaps isoform P21802-22 DEL37-62/R63G: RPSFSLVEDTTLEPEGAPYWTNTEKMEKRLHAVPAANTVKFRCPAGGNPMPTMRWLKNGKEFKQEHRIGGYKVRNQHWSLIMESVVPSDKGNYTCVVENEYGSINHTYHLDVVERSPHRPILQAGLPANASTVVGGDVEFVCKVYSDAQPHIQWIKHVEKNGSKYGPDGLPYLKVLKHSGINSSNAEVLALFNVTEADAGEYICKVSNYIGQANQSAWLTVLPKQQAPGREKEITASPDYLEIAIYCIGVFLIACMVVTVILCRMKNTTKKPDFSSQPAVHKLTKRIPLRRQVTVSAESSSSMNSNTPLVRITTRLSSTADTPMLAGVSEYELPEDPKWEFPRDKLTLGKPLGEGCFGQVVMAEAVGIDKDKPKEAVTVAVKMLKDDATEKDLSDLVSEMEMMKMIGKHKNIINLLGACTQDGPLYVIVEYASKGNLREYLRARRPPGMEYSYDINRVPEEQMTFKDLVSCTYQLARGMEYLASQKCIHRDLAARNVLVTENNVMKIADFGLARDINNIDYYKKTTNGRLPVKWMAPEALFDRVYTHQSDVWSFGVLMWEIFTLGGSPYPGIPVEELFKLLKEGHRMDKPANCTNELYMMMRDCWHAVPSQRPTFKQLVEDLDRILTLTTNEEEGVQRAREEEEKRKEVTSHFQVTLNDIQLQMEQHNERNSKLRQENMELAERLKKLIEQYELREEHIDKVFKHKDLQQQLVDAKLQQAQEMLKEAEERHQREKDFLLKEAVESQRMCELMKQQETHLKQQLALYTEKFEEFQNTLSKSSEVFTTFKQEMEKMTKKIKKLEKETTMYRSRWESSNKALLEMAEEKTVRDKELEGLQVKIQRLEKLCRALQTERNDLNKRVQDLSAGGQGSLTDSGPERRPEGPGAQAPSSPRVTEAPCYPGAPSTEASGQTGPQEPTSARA
UniProt P21802, with tags, fused parts or gaps isoform P21802-22: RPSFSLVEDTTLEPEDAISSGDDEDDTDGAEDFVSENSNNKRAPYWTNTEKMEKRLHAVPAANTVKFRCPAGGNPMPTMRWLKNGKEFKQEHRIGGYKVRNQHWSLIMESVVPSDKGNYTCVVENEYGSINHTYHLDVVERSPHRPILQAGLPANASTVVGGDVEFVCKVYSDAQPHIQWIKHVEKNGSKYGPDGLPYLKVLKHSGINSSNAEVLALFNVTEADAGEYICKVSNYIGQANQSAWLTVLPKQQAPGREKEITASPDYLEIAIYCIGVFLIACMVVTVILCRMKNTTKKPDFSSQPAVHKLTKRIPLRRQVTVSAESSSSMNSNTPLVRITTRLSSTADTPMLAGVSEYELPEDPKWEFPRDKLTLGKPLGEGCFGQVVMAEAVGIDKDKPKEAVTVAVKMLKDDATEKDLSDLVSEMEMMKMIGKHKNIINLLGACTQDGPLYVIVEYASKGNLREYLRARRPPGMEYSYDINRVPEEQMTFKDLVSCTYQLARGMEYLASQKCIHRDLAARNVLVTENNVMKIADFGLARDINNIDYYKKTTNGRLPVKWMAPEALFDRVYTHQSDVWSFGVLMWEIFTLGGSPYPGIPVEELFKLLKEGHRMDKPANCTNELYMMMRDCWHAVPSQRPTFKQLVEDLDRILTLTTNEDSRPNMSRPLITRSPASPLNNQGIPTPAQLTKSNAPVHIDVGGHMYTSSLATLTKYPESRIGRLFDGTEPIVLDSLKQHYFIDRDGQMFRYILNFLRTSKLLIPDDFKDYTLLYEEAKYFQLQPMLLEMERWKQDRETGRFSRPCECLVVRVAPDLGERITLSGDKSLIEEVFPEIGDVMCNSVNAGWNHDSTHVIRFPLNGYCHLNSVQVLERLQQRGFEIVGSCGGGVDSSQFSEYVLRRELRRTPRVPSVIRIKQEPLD
NIH3T3 cell transfected with FGFR2-BICC1 type2 (Homo sapiens, UniProt P21802, DEL126-151/R152G), UniProt P21802, with tags, fused parts or gaps isoform P21802-22 DEL37-62/R63G: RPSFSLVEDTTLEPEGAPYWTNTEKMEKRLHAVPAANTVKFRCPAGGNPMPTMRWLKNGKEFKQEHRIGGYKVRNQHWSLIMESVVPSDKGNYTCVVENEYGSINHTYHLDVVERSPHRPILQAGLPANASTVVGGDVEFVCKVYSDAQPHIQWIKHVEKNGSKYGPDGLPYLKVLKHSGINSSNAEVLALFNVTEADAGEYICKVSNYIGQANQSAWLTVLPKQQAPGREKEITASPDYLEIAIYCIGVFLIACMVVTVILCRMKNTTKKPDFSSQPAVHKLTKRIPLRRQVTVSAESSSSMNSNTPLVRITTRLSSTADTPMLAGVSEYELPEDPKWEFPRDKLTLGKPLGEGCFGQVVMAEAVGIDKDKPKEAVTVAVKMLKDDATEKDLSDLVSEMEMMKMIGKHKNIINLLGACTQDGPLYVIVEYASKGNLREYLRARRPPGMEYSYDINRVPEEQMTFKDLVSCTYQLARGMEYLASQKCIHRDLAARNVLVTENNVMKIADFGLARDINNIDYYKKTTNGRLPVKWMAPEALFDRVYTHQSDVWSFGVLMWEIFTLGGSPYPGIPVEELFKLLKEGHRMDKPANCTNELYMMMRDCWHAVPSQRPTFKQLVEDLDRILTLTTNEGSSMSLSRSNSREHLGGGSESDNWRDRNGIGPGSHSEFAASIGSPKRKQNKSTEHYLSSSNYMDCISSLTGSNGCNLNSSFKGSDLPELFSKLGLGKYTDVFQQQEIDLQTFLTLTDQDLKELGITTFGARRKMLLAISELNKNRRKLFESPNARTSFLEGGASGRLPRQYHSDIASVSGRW

Like-named read-outs stand apart in the source and are kept apart here.

With `CCN(CC)CCCCNc1ncc2cc(-c3cc(OC)cc(OC)c3)c(NC(=O)NC(C)(C)C)nc2n1` [PD173074], the anchorage independent growth result in assay [1] was “significantly suppressed”; in assay [2], “significantly suppressed”; in assay [3] (final concentration 0.2 μM, soft agar, FIG. 5 and FIG. 6), “little suppressed”; in assay [3] (final concentration 1.0 μM, FIG. 7) it was “suppressed”.

(Values after patent US12364690B2, “Therapeutic agent for bile duct cancer” (NATIONAL CANCER CENTER, priority 2015, dated 2025).)
